# scFv variants of Ab-14 (light chain) against a SARS-CoV-2 spike peptide

Reference: Li et al. 2023, doi:10.1038/s41467-023-39022-2. File: FLAb, binding data.

Target: peptide PDVDLGDISGINAS, taken from heptad repeat 2 (HR2) of SARS-CoV-2 spike.

Ab-14 is the parent antibody, in scFv form: VH, then three GGGGS repeats, then VL. The heavy chain is unchanged in all variants.
VH: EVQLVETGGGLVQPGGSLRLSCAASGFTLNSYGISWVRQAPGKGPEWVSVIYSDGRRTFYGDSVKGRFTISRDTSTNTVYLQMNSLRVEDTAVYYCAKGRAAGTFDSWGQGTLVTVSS
VL: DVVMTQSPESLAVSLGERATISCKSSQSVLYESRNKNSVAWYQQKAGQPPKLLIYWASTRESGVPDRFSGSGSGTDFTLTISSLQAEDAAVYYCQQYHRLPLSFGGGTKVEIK

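The starting antibody came from a phage panning campaign against this peptide. These sequences belong to a second round, designed from the earlier measurements on random variants of the parent. Their group label is 14L_GP_Gibbs (GP: Gaussian process model; Gibbs: Gibbs sampling; a sequence that several methods proposed may carry one label only). AlphaSeq pools MATa yeast showing the antibodies with MATalpha yeast showing the peptide. After mating in shaken culture at 30 °C for 16 h, diploids were selected and their barcode pairs sequenced. The ratio of observed to expected reads was calibrated, replicate by replicate, on BCL2-family standards whose Kd was known from biolayer interferometry. Mating was done six times.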

The whole VL of each variant is written out.
Scale: log10 of Kd in nM, estimated from mating counts; low values are strong binders.
"nd" marks a missing value. The strain was present, yet no cells mated with the target were sequenced in that replicate, which points to weak or no binding.
A sequence measured in both rounds can read differently, since the two assays cover different ranges.
Three control strains display no target. For all light chain designs, 4% of the pairings with them gave a signal, with a median of 2.64 and one signal in twenty below 1.59, so weak values seen in few replicates may be background. The control count says in how many pairings with the empty strains this scFv gave a signal.
The authors averaged sequences with at least three values out of six and counted those with two or fewer as poor binders.
The parent sequence was in this pool as ten entries: three were never detected, three once, and four in most replicates, with averages from 0.34 to 2.37.

With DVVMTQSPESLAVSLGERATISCKLSMSWMQEERNKNSVAWYQQKAGQPPKLLIYQASQREQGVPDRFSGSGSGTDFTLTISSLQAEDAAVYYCQQYHRLPLSFGGGTKVEIK the result was 0.04, -0.15, 0.05, -0.09, 0.12, 0.14 (controls 1 of 18).
With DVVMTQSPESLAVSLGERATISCKVDMSQLYESRNKNSVAWYQQKAGQPPKLLIYNASLRMSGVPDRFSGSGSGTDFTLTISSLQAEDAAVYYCQQYHRLPLSFGGGTKVEIK the result was 0.25, 0.10, 0.04, -0.28, -0.28, 0.17 (controls 1 of 18).
With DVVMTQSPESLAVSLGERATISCKVSQSVLYESRVKNSVAWYQQKAGQPPKLLIYDASMRESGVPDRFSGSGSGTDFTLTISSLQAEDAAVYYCQQYHRLPLSFGGGTKVEIK the result was -0.04, -0.02, -0.17, 0.50, -0.34, -0.33 (controls 0 of 18).
With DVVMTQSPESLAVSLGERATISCILWQSQLYESRNKNSVAWYQQKAGQPPKLLIYQASKREMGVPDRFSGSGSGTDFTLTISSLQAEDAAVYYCQQYHRLPLSFGGGTKVEIK the result was nd, 0.61, 0.13, 0.60, 0.75, 0.56 (controls 0 of 18).
With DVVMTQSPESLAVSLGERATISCKLSQHVEYESRLKNSVAWYQQKAGQPPKLLIYNASTRLEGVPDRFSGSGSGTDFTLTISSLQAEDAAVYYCQQYHRLPLSFGGGTKVEIK the result was 0.70, 0.58, 0.71, 0.23, 0.32, 0.55 (controls 5 of 18).
With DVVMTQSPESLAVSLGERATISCKLDGSCQYESRNKNSVAWYQQKAGQPPKLLIYNASTRESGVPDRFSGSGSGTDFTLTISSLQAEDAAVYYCQQYHRLPLSFGGGTKVEIK the result was 0.30, 0.04, 0.58, 0.18, 0.17, 0.44 (controls 3 of 18).
With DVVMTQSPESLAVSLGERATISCKVEQSMGYESRNQNSVAWYQQKAGQPPKLLIYEASHRESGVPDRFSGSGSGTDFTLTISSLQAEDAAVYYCQQYHRLPLWFGGGTKVEIK the result was 0.38, 0.22, 0.40, -0.05, 0.30, 0.58 (controls 1 of 18).
With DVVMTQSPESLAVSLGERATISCKIEQSVLYEDRNINSVAWYQQKAGQPPKLLIYNASQRYSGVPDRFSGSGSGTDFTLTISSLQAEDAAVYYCQLYHRLPLSFGGGTKVEIK the result was nd, 1.83, 1.75, 2.94, 0.98, 1.51 (controls 1 of 18).
With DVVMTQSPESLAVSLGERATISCKLSQSDEYESRQKNSVAWYQQKAGQPPKLLIYNASTRMQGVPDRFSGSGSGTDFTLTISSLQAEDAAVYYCQQYHRLPLSFGGGTKVEIK the result was 0.25, 0.09, 0.06, -0.12, 0.09, 0.07 (controls 2 of 18).
With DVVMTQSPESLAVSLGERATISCKLVMSWGYESRNKNNVAWYQQKAGQPPKLLIYHASQRCSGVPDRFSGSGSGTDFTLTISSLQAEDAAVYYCQQYHRLPLSFGGGTKVEIK the result was 0.69, 0.67, 0.52, 0.18, 0.53, 0.67 (controls 0 of 18).
With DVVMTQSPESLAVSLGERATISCKQQQSEPGLSRNMNSVAWYQQKAGQPPKLLIYHASQRESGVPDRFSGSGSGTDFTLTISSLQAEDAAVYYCQQYHRLPLSFGGGTKVEIK the result was 0.63, 0.37, 0.35, 0.75, 1.13, 1.15 (controls 1 of 18).
With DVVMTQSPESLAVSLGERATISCKLSASQLYWSRNKNSVAWYQQKAGQPPKLLIYQASTRETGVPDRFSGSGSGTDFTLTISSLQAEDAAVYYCQQYHRLPLSFGGGTKVEIK the result was 0.19, 0.94, -0.28, 0.54, 0.17, 0.06 (controls 1 of 18).
With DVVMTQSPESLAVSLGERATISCKLMMLGDYESRNKNSVAWYQQKAGQPPKLLIYQASQREQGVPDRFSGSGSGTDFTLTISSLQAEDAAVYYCQQYHRLPLSFGGGTKVEIK the result was -0.19, -0.14, -0.18, -0.24, -0.18, 0.25 (controls 1 of 18).
With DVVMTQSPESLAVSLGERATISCKVPGSHLYESRNKNSVAWYQQKAGQPPKLLIYHASTRCSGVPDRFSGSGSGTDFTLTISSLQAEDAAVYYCQDYHRLPLSFGGGTKVEIK the result was 0.61, 0.76, 0.44, 0.48, 0.45, 0.69 (controls 4 of 18).
With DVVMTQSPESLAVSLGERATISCKLQQMYEYESRNPNSVAWYQQKAGQPPKLLIYHASTRELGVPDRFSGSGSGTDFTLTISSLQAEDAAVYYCQQYHRLPLSFGGGTKVEIK the result was -0.32, -0.47, -0.17, -0.47, -0.30, -0.34 (controls 1 of 18).
With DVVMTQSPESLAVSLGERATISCKSSQAELYESRHKNSVAWYQQKAGQPPKLLIYNASYREDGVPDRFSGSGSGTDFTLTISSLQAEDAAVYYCQQYHRLPLSFGGGTKVEIK the result was 0.60, 0.44, 0.39, 0.18, 0.47, 0.54 (controls 0 of 18).
With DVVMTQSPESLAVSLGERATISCKLSPSVMYESRMKNSVAWYQQKAGQPPKLLIYMASTRYEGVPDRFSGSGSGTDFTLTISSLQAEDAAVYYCQQYHRLPLSFGGGTKVEIK the result was 0.11, 0.16, 0.11, 0.00, -0.01, 0.10 (controls 2 of 18).
With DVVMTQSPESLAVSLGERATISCKLQNSYEYESRMMNSVAWYQQKAGQPPKLLIYNASTRLEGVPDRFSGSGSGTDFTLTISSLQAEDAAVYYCQQYHRLPLSFGGGTKVEIK the result was -0.47, 0.40, 0.45, 0.46, 0.15, 0.03 (controls 0 of 18).
With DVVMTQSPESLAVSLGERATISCKLSMLHWYWSRNKNSVAWYQQKAGQPPKLLIYEASTREQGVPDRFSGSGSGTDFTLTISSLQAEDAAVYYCQQYHRLPLSFGGGTKVEIK the result was 1.24, 1.59, 1.07, 1.74, 0.69, 0.98 (controls 0 of 18).
With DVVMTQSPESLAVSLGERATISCKLQQQNLYESRNKNNVAWYQQKAGQPPKLLIYEASTREQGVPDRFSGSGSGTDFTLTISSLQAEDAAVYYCQQYHRLPLSFGGGTKVEIK the result was -0.19, -0.32, -0.43, -0.70, -0.59, -0.28 (controls 0 of 18).

Top 2 of the variants detected in all replicates, tightest first:

VL,"log10 Kd, replicates",control signals
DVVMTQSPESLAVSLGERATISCKLQQQNLYESRNKNNVAWYQQKAGQPPKLLIYEASTREQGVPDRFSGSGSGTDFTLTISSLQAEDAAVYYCQQYHRLPLSFGGGTKVEIK,"-0.19, -0.32, -0.43, -0.70, -0.59, -0.28",0 of 18
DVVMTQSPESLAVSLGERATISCKLQQMYEYESRNPNSVAWYQQKAGQPPKLLIYHASTRELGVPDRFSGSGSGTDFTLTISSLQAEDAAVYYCQQYHRLPLSFGGGTKVEIK,"-0.32, -0.47, -0.17, -0.47, -0.30, -0.34",1 of 18